# Permeability data for macrocyclic peptides

Values of Townsend et al. 2020, doi:10.26434/chemrxiv.13335941.v1, as listed in CycPeptMPDB.

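The data file gives no further conditions (lipid, pH, time, direction or concentration), and values from different papers need not be comparable. Other peptides of the study may be missing here. Entries at the database's floor value (log10 P of -10) are not listed.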

PAMPA is the parallel artificial membrane permeability assay, which has no cells and reads passive diffusion. Permeability is given as log10 of P in cm/s; higher (less negative) is more permeable.

compound,PAMPA (log10 cm/s)
CC(C)C[C@H]1NC(=O)[C@H]2CCCN2C(=O)C[C@H](Cc2ccccc2)NC(=O)CN(Cc2ccccc2)C(=O)C[C@H](Cc2ccccc2)NC(=O)[C@H]2CCCN2C(=O)[C@H](Cc2ccccc2)NC1=O,-6.09
CC(C)C[C@@H]1NC(=O)[C@H]2CCCN2C(=O)CN(Cc2ccccc2)C(=O)[C@@H](CC(C)C)N(C)C(=O)[C@@H](C)N(C)C(=O)[C@H]2CCCN2C(=O)[C@H](Cc2ccccc2)NC1=O,-6.15
CC(C)C[C@H]1NC(=O)C[C@H](Cc2ccccc2)NC(=O)[C@@H]2CCCN2C(=O)[C@H](Cc2ccccc2)NC(=O)[C@H](CC(C)C)N(C)C(=O)[C@@H]2CCCN2C(=O)CN(Cc2ccccc2)C1=O,-6.00
CC(C)C[C@@H]1NC(=O)[C@H](CC(C)C)N(C)C(=O)[C@@H](C)N(C)C(=O)[C@@H]2CCCN2C(=O)[C@H](Cc2ccccc2)NC(=O)CN(Cc2ccccc2)C(=O)[C@H]2CCCN2C1=O,-5.40
CC(C)C[C@@H]1NC(=O)[C@H](C)N(C)C(=O)[C@@H]2CCCN2C(=O)[C@H](Cc2ccccc2)NC(=O)[C@@H](CC(C)C)NC(=O)[C@@H]2CCCN2C(=O)[C@H](CC(C)C)N(C)C1=O,-7.66
CC(C)C[C@@H]1C(=O)N(C)[C@H](CC(C)C)C(=O)N2CCC[C@H]2C(=O)N(C)[C@@H](CC(C)C)C(=O)N[C@@H](Cc2ccccc2)C(=O)N[C@@H](C)C(=O)N1C,-5.16
CCCN1CC(=O)N(C)[C@@H](CC(C)C)C(=O)N[C@H](CC(C)C)C(=O)N2CCC[C@@H]2C(=O)N(Cc2ccccc2)CC(=O)N[C@@H](Cc2ccccc2)C(=O)N2CCC[C@H]2C1=O,-5.22
CC(C)C[C@H]1NC(=O)[C@@H](C)N(C)C(=O)[C@@H]2CCCN2C(=O)[C@H](Cc2ccccc2)NC(=O)[C@H](CC(C)C)N(C)C(=O)[C@@H]2CCCN2C(=O)[C@H](CC(C)C)N(C)C1=O,-5.54
CC(C)C[C@@H]1NC(=O)[C@@H](CC(C)C)N(C)C(=O)[C@@H](C)NC(=O)[C@H](Cc2ccccc2)NC(=O)[C@@H](CC(C)C)NC(=O)[C@H]2CCCN2C1=O,-5.24
CC(C)C[C@H]1NC(=O)[C@@H](C)NC(=O)[C@@H]2CCCN2C(=O)[C@H](Cc2ccccc2)NC(=O)[C@@H](CC(C)C)NC(=O)[C@@H]2CCCN2C(=O)C[C@H](Cc2ccccc2)NC1=O,-6.53
CC(C)C[C@@H]1C(=O)N[C@@H](Cc2ccccc2)CC(=O)N2CCC[C@@H]2C(=O)N(C)[C@H](CC(C)C)C(=O)N[C@@H](Cc2ccccc2)C(=O)N2CCC[C@@H]2C(=O)N[C@@H](Cc2ccccc2)CC(=O)N1C,-5.60
CCCN1CC(=O)N[C@H](CC(C)C)C(=O)N(Cc2ccccc2)CC(=O)N2CCC[C@@H]2C(=O)N[C@H](CC(C)C)C(=O)N[C@@H](Cc2ccccc2)C(=O)N2CCC[C@@H]2C1=O,-5.60
CCCN1CC(=O)N[C@@H](CC(C)C)C(=O)N(C)[C@@H](CC(C)C)C(=O)N2CCC[C@H]2C(=O)N[C@@H](CC(C)C)C(=O)N[C@@H](Cc2ccccc2)C(=O)N2CCC[C@H]2C1=O,-5.77
CC(C)C[C@@H]1NC(=O)[C@@H](CC(C)C)N(C)C(=O)[C@@H](C)NC(=O)[C@H](Cc2ccccc2)NC(=O)[C@@H](CC(C)C)N(C)C(=O)[C@H]2CCCN2C1=O,-4.89
CC(C)C[C@@H]1C(=O)N(C)[C@@H](CC(C)C)C(=O)N2CCC[C@H]2C(=O)N[C@H](CC(C)C)C(=O)N[C@@H](Cc2ccccc2)C(=O)N2CCC[C@H]2C(=O)N(C)[C@@H](C)C(=O)N1C,-6.51
CC(C)C[C@@H]1C(=O)N(Cc2ccccc2)CC(=O)N2CCC[C@H]2C(=O)N(C)[C@H](CC(C)C)C(=O)N[C@@H](Cc2ccccc2)C(=O)N2CCC[C@@H]2C(=O)N[C@@H](Cc2ccccc2)CC(=O)N1C,-5.48
CC(C)C[C@@H]1NC(=O)[C@H](C)NC(=O)[C@H](Cc2ccccc2)NC(=O)[C@H](CC(C)C)N(C)C(=O)[C@H]2CCCN2C(=O)[C@H](CC(C)C)N(C)C1=O,-5.07
CC(C)C[C@H]1NC(=O)[C@@H](C)NC(=O)[C@H]2CCCN2C(=O)[C@H](Cc2ccccc2)NC(=O)CN(Cc2ccccc2)C(=O)[C@@H]2CCCN2C(=O)[C@H](CC(C)C)N(C)C1=O,-6.18

Again, the 2 entries with the lowest PAMPA:

compound,PAMPA (log10 cm/s)
CC(C)C[C@@H]1NC(=O)[C@H](C)N(C)C(=O)[C@@H]2CCCN2C(=O)[C@H](Cc2ccccc2)NC(=O)[C@@H](CC(C)C)NC(=O)[C@@H]2CCCN2C(=O)[C@H](CC(C)C)N(C)C1=O,-7.66
CC(C)C[C@H]1NC(=O)[C@@H](C)NC(=O)[C@@H]2CCCN2C(=O)[C@H](Cc2ccccc2)NC(=O)[C@@H](CC(C)C)NC(=O)[C@@H]2CCCN2C(=O)C[C@H](Cc2ccccc2)NC1=O,-6.53